These are literature values, as cited in US20190335749A1, “Adjustable Release Pesticide Tablet Formulations” (priority 2018, published 2019).

Each structure is given as a SMILES string.

The conditions of the series: cited from earlier work.

`O=[N+]([O-])c1ccc([O-])cc1C(F)(F)F.[K+]` [TFM phenoxide salt]: the solubility in water result is given as “significantly more soluble”.
